Measured values reported in article PMC3446790 (Cellular signalling, 2010).

The chains behind the UniProt entries cited, without tags or fusion partners.
UniProt Q99500, whole entry, species assumed: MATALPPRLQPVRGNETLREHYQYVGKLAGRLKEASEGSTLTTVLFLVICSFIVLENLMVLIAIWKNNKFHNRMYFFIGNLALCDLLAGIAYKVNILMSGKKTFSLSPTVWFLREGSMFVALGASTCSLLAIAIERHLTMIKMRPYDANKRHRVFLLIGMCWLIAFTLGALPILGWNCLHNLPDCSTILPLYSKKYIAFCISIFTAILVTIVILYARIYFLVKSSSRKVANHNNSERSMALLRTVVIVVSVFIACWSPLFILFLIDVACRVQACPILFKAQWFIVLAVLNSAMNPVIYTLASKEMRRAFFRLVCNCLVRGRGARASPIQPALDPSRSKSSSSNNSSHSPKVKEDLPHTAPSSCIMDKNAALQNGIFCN

Columns and labels:
Assay type in all cases: cell-based
[1] = target: T1, S1P1 (Homo sapiens, UniProt P21453); assay: Ca2+ mobilization; details: % of S1P maximal response, HTC4 cells
[2] = target: S1P3 (Homo sapiens, UniProt Q99500); assay: Ca2+ mobilization; details: % of S1P maximal response, HTC4 cells
[3] = target: T1, S1P1; assay: Receptor desensitization assay in S1P1-expressing HTC4 cells; details: 300 nM, 2 h preincubation
[4] = target: S1P1-eGFP (Homo sapiens, UniProt P21453); details: 10 nM, 30 min, HEK293

SMILES: CCCCCCCCc1ccc(CC[C@](N)(CO)COP(=O)(O)O)cc1 [FTY720-P, (S)-FTY720-phosphate, reference compound]
- Emax, S1P1 [1]: 85%
- Emax, S1P3 [2]: 23%
- desensitization of the S1P1 response to S1P after preincubation [3]: completely desensitized
- S1P1-eGFP receptor internalization [4]: caused internalization; also recorded: caused translocation

“Also recorded” adds a separate entry of the source.
